These results are taken from article PMC5907308, “21st Brazilian Diabetes Society Congress” (Diabetology & Metabolic Syndrome, 2018).

The conditions of series [1]: background statement; no reference given; cited from earlier work.
The conditions of series [2]: background statement; no reference given; cited from earlier work. This is another data set of the same source.
The test system of series [3] is patients with DM 1 and DRIASM. Put plainly: Case reports: IDeg in resistance to subcutaneous and intramuscular insulin (DRIASM). The following applies: patient 2. The class given is in vivo, human.
The next series deals with participants with T1DM. The series is described as follows: Multiple-dosing crossover euglycemic glucose clamp study, steady-state PK/PD. Format: in vivo, human. The following applies: for Distribution of INS-AUC0-24, 6-h fraction 0–6 h / Distribution of INS-AUC0-24, 6-h fraction 6–12 h / Distribution of INS-AUC0-24, 6-h fraction 12–18 h / Distribution of INS-AUC0-24, 6-h fraction 18–24 h: data the same at 0.4 and 0.6 U/kg/day; for relative degree of INS fluctuation (Frel), lower vs. Deg-100: serum insulin.

The test system of series [4] is inpatient population with diabetes. Put plainly: Degludeca vs NPH, both with Regular Insulin, in hospital (8 patients per group). Format: in vivo, human.
Series [5] deals with elderly patients with T2DM. Put plainly: Pilot randomized trial Ideg vs Iglar-U100 with CGM. Format: in vivo, human.
In the next series the test system is T1D patients < 18 years. Put plainly: Real-world clinical follow-up of T1D patients < 18 years switched to insulin degludec. The class given is in vivo, human.
The test system of a further series is patients with T2D. The series is described as follows: Network meta-analysis Gla-300 vs IDeg (inputs of the cost-effectiveness model). The class given is in vivo, human. The following applies: estimated by network meta-analysis.
The subject of series [6] is subjects with T2D inadequately controlled on IGlarU100 and metformin. Put plainly: DUAL V 26-week open-label treat-to-target trial. Format: in vivo, human.
Series [7] has as its system people with T2DM aged ≥ 65 year. Put plainly: Patient-level meta-analysis of EDITION 1, 2 and 3, participants aged ≥ 65 year, 1 year. The class given is in vivo, human. The conditions noted are these: for mean (SD) increase in body weight from baseline to 1 year: human, in vivo; for total number of confirmed (≤ 70 mg/dL) or severe hypoglycemic events, any time [24 h] / total number of confirmed (≤ 70 mg/dL) or severe hypoglycemic events, nocturnal [00:00–05:59 h]: over 12 months.

Series [8] deals with people with T2D and CKD stages 3-4. Put plainly: AWARD-7 phase 3 study, 26 weeks, both arms combined with insulin lispro. The class given is in vivo, human.
A further series deals with T2DM patients. The following applies: for documented hypoglycemia event rate: Poisson regression; for documented (≤ 70 mg/dL) symptomatic hypoglycemia, patients: pooled, 12 months.
In series [9] the test system is T2D pts aged ≥ 65 years on basal insulin. Put plainly: DELIVER 3 retrospective real-world study. The class given is in vivo, human. The conditions noted are these: 6-mo follow-up.
Series [10] deals with adults with T2D using basal insulin. Put plainly: DELIVER2 real-world study, switch of basal insulin. Format: in vivo, human.
In the next series the test system is people with T2DM. The following applies: vs Gla-100, regardless of HbA1c at month 6.
For series [11], the system named is T2DM pts uncontrolled on BOT with other BI. Put plainly: TOP-2 prospective observational study, 6 month interim analysis. The class given is in vivo, human.
[12] abbreviates: arms DU 1.5 mg and insulin glargine.

As to insulin degludec [IDeg], in series [1], the mean half-life entry is recorded as “over 25 h”. In [2], the half-life is recorded as ~ 25 h. Also, in series [3], the “episodes of hipoglycemia after SC IDeg-70 UI” value was 2 episodes. Moreover, the “Insulinemia (2,6-24,9 μUI/mL)” value in [3] (04 hour after SC IDeg 70UI) worked out at 75.7 μUI/mL. Further, in the series on participants with T1DM, the “Distribution of INS-AUC0-24, 6-h fraction 0–6 h” value was 23%; the “Distribution of INS-AUC0-24, 6-h fraction 6–12 h” value is on record as 29%; the “Distribution of INS-AUC0-24, 6-h fraction 12–18 h” value is given as 26%; the “Distribution of INS-AUC0-24, 6-h fraction 18–24 h” value came to 21%. Also, in series [4], the “episodes of hypoglycemia during hospitalization” value is recorded as 4 episodes, the nocturnal hypoglycemia episodes amounted to 1 episodes and the “severe hypoglycemia (< 40 mg/dl) episodes” value amounted to 1 episodes. In [5] (CGMS), the “Nº of hypos (nocturnal)” value is on record as 2 (1-2) and the “Nº of hypos (total)” value is given as 3 (1-6). Further, in [5] (SMBG), the “Nº of hypos (nocturnal)” value is given as 0 (0-2) and the “Nº of hypos (total)” value is 0 (0-4). In the series with T1D patients < 18 years (human, in vivo), the adverse events entry was “No others adverse events were reported”. Also, in the series with T1D patients < 18 years (n = 9), the “Body weight at baseline” value turned out to be 47.77 kg. Moreover, the “Body weight after switch” value with T1D patients < 18 years (n = 9, follow up 6 months) is on record as 49.63 (± 13.28) kg. In the series on T1D patients < 18 years (patients and parents reports), the Nocturnal hypoglycaemia result is on record as “reduced”. For the same substance, in the series on patients with T2D, the “non-severe HEs (NSHEs)” value was 555 per 100 patient years and the “severe hypoglycemia events (HEs)” value is recorded as 4.0 per 100 patient years.

As for insulin glargine [Gla-100], in series [6] (26 weeks), the confirmed hypoglycaemic episodes is 505.4 episodes/100 PYE and the “nocturnal confirmed hypoglycaemia (00:01 to 05:59)” value is given as 122.8 episodes/100 PYE. In [6] (week 26), the “mean (SD) weight increase from baseline” value is given as 1.8 kg. In series [7], the “mean (SD) increase in body weight from baseline to 1 year” value was 1.3 [3.3] kg; the “total number of confirmed (≤ 70 mg/dL) or severe hypoglycemic events, any time [24 h]” value is reported as 5101; the “total number of confirmed (≤ 70 mg/dL) or severe hypoglycemic events, nocturnal [00:00–05:59 h]” value amounted to 839. In series [8] (setting [12]), the Nausea came to 2.6%, the diarrhea amounted to 3.1% and the vomiting is on record as 3.1%. In series [8] (arms DU 1.5 mg once weekly and titrated daily insulin glargine), the “hypoglycemia rate (≤ 70 mg/dL)” value is recorded as 17.1 events/participant/year. In series [5] (CGMS), the “Nº of hypos (nocturnal)” value is given as 0 (0-2) and the “Nº of hypos (total)” value is 1 (0-3). Besides, in [5] (SMBG), the “Nº of hypos (nocturnal)” value is listed as 0 and the “Nº of hypos (total)” value is on record as 0 (0-3). In the series with T2DM patients, the “documented hypoglycemia event rate” value was found to be 5.2 events/year and the “documented (≤ 70 mg/dL) symptomatic hypoglycemia, patients” value is 63.3%.

Consider insulin glargine [Gla-300], for which, in [9], the “less likely to have hypoglycemia vs. other basal insulins” value is on record as 57%. For the same substance, in [9] (95% CI 0.307–0.607, P < 0.0001), the “hypoglycemia, OR vs. other basal insulins” value was found to be 0.432. Moreover, the “fewer hypo events vs O-BI, LSM difference” value in series [10] (6 m, adjusted for baseline hypo, P < 0.01) came to 0.23 E/PPPY. In [10] (6 m, P = 0.01), the pts experienced hypo was 15.9%. Further, the “all-cause ER service, adjusted odds ratio vs O-BI” value in series [10] (6 m, [0.66–0.91], P < 0.01) is given as 0.77. Further, the “fewer all-cause ER events vs O-BI, LSM difference” value in [10] (P = 0.01) was determined as 0.18 E/PPPY. The “rate of confirmed (≤ 70 mg/dL) or severe hypoglycemia” value with people with T2DM is “consistently lower rate”. In addition, in series [7] (Nocturnal (00:00–05:59 h), safety population), the “≥ 1 confirmed (≤ 70 mg/dL) or severe nocturnal hypoglycemic event, RR Gla-300 relative to Gla-100” value was determined as 0.79. In addition, in series [7], the “mean (SD) increase in body weight from baseline to 1 year” value is 1.1 [4.0] kg; the “total number of confirmed (≤ 70 mg/dL) or severe hypoglycemic events, any time [24 h]” value came to 4664; the “total number of confirmed (≤ 70 mg/dL) or severe hypoglycemic events, nocturnal [00:00–05:59 h]” value was determined as 604. For the same substance, in series [11] (after switching, vs 1.2% before), the “pts experienced nocturnal hypoglycemia” value is reported as 0.5%. Further, in series [11] (six months after switching), the BW result is recorded as “remained stable”. For the same substance, the “relative degree of INS fluctuation (Frel), lower vs. Deg-100” value in the series with participants with T1DM (0.4 U/kg/day) is recorded as 13%. Also, the “relative degree of INS fluctuation (Frel), lower vs. Deg-100” value with participants with T1DM (0.6 U/kg/day) worked out at 17%. In addition, in the series with participants with T1DM, the “Distribution of INS-AUC0-24, 6-h fraction 0–6 h” value was 25%; the “Distribution of INS-AUC0-24, 6-h fraction 6–12 h” value turned out to be 26%; the “Distribution of INS-AUC0-24, 6-h fraction 12–18 h” value was determined as 26%; the “Distribution of INS-AUC0-24, 6-h fraction 18–24 h” value turned out to be 23%. Also, the “documented symptomatic hypoglycemia, odds ratio Gla-300 vs. Gla-100” value in the series on T2DM patients (95% CI 0.65–0.90, P = 0.001) came out at 0.77. In the series on T2DM patients (95% CI 0.76–0.92, P < 0.001), the “documented hypoglycemia rate ratio Gla-300 vs. Gla-100” value came out at 0.84. In the series on T2DM patients, the “documented hypoglycemia event rate” value is 4.4 events/year and the “documented (≤ 70 mg/dL) symptomatic hypoglycemia, patients” value is on record as 57.0%. In the series on patients with T2D, the “non-severe HEs (NSHEs)” value is on record as 446 per 100 patient years and the “severe hypoglycemia events (HEs)” value was 2.5 per 100 patient years.
